{"sequences": {"note": "The chains behind the UniProt entries cited, without tags or fusion partners.", "UniProt P61169, whole entry": "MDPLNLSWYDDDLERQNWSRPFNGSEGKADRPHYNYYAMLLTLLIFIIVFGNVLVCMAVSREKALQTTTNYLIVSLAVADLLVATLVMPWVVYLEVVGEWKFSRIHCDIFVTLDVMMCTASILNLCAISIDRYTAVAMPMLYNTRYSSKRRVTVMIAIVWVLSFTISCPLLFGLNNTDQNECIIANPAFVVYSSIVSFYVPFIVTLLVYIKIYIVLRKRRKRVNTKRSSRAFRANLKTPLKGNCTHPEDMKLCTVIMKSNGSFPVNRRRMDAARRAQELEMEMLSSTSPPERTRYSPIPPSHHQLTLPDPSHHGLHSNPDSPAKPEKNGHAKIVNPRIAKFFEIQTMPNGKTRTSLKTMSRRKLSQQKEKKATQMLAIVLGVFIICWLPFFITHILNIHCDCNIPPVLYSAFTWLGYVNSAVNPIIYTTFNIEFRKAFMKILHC", "UniProt P14842, whole entry": "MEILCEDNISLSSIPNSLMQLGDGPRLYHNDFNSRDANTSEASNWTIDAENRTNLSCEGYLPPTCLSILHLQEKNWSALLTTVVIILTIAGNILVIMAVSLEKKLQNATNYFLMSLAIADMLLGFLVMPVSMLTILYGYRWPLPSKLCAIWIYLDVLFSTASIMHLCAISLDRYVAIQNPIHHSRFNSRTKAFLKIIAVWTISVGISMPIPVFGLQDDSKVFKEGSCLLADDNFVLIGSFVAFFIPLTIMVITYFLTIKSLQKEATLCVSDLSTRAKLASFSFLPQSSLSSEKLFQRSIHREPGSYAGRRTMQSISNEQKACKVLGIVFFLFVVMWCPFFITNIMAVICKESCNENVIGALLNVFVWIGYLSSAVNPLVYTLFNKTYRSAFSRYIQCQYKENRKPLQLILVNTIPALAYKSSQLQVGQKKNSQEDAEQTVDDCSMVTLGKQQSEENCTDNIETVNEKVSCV"}, "source": "patent US4710500A", "about": "“1-(4'-fluorophenyl)-3,5-substituted indoles useful in the treatment of psychic disorders and pharmaceutical compositions thereof” (H. Lundbeck A/S, priority 1985, dated 1987)", "key": {"in vivo": {"assay": "in vivo", "details": "mouse, iv"}, "[1]": {"target": "T1, dopamine (DA) D-2 receptors (Rattus norvegicus, UniProt P61169)", "T1 construct": "DA D-2 receptors in rat striatal membranes; from tissue; host or cells: rat striatal membranes", "assay": "3H-spiroperidol binding, dopamine D-2 receptors in rat striatal membranes", "details": "in vitro, read-out: 3H-Spiroperidol bindings DA-2 receptors IC50"}, "[2]": {"target": "T2, serotomin2 (5-HT2) receptors (Rattus norvegicus, UniProt P14842)", "T2 construct": "5-HT2 receptors in rat cortical membranes; from tissue; host or cells: rat cortical membranes", "assay": "3H-spiroperidol binding, 5-HT2 receptors in rat cortical membranes", "details": "in vitro, read-out: 3H-Spiroperidol bindings 5-HT2 receptors IC50"}}, "note": "Where a name gives a salt, the structure may show the parent alone.", "data": [{"smiles": "OCCN1CCN(CC/C=C2/c3ccccc3Sc3ccc(C(F)(F)F)cc32)CC1", "note": "[Cis(Z)Flupentixol, reference compound]", "values": [{"measurement": "LD50", "setting": "in vivo", "result": "120 to 180", "unit": "µmol/kg"}]}, {"smiles": "O=C1NCCN1CCN1CCC(c2cn(-c3ccc(F)cc3)c3ccc(Cl)cc23)CC1", "note": "[Lu 23-174, 5-Chloro-1-(4'-fluorophenyl)-3-(1-(2-imidazolidinon-1-ylethyl)-4-piperidyl)-1H-indole, maleate]", "values": [{"measurement": "IC50", "setting": "[1]", "result": 20, "unit": "nM"}, {"measurement": "IC50", "setting": "[2]", "result": 6.6, "unit": "nM"}]}]}
